Test [1] deals with Transient receptor potential cation channel subfamily A member 1 (Rattus norvegicus) (UniProt Q6RI86). In words: Agonist activity at TRPA1 channel in rat DRG neurons assessed as increase in intracellular calcium influx relative to allyl isothiocyanate. In general terms: Calcium assays in cells follow changes in intracellular calcium, usually with a dye or a luminescent sensor.
Test [2] has the same target. Briefly: Agonist activity at TRPA1 channel in rat DRG neurons assessed as increase in intracellular calcium influx relative to URB597.

Amino acid sequences for entries named in this document (tags omitted).
UniProt Q6RI86, whole entry, looked up: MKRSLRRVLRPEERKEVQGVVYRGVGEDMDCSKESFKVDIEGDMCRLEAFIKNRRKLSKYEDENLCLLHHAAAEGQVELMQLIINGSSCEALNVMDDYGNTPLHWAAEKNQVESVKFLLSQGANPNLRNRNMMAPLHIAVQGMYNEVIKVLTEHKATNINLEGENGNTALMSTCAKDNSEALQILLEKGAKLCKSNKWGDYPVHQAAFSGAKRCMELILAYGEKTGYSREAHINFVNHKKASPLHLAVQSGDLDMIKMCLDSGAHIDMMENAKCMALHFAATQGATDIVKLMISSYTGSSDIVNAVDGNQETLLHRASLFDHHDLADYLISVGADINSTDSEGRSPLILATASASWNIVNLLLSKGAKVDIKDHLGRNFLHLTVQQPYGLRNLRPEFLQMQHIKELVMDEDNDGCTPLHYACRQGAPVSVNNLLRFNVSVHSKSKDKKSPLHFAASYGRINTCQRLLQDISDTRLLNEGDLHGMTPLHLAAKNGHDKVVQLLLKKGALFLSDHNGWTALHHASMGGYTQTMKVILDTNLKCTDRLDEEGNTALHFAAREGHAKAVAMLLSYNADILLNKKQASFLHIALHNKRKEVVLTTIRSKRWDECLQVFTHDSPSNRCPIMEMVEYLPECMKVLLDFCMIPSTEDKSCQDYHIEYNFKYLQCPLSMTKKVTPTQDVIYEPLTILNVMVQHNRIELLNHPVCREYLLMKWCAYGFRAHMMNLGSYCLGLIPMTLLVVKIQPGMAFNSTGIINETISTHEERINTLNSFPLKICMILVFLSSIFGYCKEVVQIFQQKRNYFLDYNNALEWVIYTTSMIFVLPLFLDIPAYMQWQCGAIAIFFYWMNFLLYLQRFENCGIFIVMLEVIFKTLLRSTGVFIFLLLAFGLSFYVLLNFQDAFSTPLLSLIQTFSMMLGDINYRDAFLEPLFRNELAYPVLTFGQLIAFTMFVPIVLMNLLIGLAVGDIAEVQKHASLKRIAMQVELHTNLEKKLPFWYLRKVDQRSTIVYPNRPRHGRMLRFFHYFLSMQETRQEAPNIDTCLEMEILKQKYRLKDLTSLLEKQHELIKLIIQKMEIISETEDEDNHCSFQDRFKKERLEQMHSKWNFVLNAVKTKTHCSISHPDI

The results in this text go back to ChEMBL document CHEMBL1155439, “Transient receptor potential ankyrin 1 (TRPA1) channel as emerging target for novel analgesics and anti-inflammatory agents” (J Med Chem, 2010).

Structures are written as SMILES.

As for `COc1ccc(C(=O)NC(Sc2ccc(Cl)cc2)C(Cl)(Cl)Cl)cc1` (centres undefined), the Emax in test [1] was determined as 35%.
Take `Cc1ccc(C(=O)NC(Sc2ccc([N+](=O)[O-])cc2)C(Cl)(Cl)Cl)cc1` (centres undefined): the Emax in test [2] was determined as 91%; in test [1], 84%.
On to `O=C(NC(Sc1ccc(Cl)cc1)C(Cl)(Cl)Cl)c1ccccc1` (centres undefined), for which, in test [1], the Emax worked out at 50%.

The Emax is the maximal effect, on the per cent scale that the assay sets.
